Values quoted from earlier work as cited in patent publication US20060089824A1, “Methods and systems for drug screening and computational modeling” (priority 2002, published 2006).

Conditions: reasonable value, therapeutic level; from Tran et al. 2000; cited from earlier work

SMILES: Cc1cc2c(s1)Nc1ccccc1N=C2N1CCN(C)CC1 [olanzapine]
- free concentration of olanzapine (corrected for binding to plasma proteins): 27 nM
